# Data reported in US8426684B2 (Washington State University Research Foundation, priority 2004, dated 2013).
# Test system: NADPH
# Test: purified protein, by the assay type
# Settings: other: cofactor, menthone as substrate, reductase expressed from pSBET, pH 7, 31° C., means±standard error
substance,measurement,value
menthone: (3R)-(−)-menthol reductase (SEQ ID NO:2) (Mentha x piperita),Km,0.12 ± 0.04 µM
